Experimental findings from patent US20200121814A1 (GENERAL HOSPITAL, published 2020) are described below.

Protein sequences, listed by entry. Tags and fused reporters are not part of them. Residues count along the entry.
UniProt P21860, 20-643: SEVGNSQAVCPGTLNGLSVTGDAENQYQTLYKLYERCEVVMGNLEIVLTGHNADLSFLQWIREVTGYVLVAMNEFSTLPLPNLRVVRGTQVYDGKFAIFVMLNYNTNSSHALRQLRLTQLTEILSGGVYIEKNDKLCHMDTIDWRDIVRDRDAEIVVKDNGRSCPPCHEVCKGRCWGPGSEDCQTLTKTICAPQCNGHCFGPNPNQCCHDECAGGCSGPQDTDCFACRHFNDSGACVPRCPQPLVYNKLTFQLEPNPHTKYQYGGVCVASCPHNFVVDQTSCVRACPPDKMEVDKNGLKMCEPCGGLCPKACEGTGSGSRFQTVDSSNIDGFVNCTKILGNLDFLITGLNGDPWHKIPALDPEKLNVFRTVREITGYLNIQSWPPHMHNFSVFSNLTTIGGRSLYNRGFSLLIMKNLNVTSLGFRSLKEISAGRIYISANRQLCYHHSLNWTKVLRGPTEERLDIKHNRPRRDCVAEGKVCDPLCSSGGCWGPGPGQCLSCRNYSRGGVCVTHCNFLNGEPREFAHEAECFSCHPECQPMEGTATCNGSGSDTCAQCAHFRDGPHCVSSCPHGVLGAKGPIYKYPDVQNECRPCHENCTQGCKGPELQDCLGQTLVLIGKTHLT

This assay has as its target T1, HER3 extracellular domain (ECD) (R&D Systems) (human, UniProt P21860 20-643).
T1 construct: extracellular domain; Adsorbed to Maxisorp plates in the ELISAs; also called HER3 ECD; ERBB3
As to the kind of experiment: peptide ELISA on immobilized HER3 ECD, increasing peptide concentrations, sigmoidal dose response fit; given as 'affinity'. How it is done:
For comparison of phage clones against BSA and peptide specificity against other receptor tyrosine kinases, a one-way ANOVA with a Dunnett test to correct for multiple comparisons was performed. A sigmoidal dose response curve was fit to the peptide affinity data using Graphpad Prism 6.0. For peptide cell binding a two-way ANOVA with a Sidak's multiple comparisons test was performed. A linear regression was fit to HER3 TBR versus western blot data, with correlation significance calculated by a Pearson correlation.
After determination of a consensus peptide binding sequence, the peptide sequence was covalently linked to a biotin-conjugated N-terminal tri-glycine linker using standard Fmoc chemistry. The purity and molecular weight were determined by high performance liquid chromatography and mass spectrometry. In order to confirm HER3 affinity, the peptide was analyzed for binding to HER3 ECD immobilized to Nunc Maxisorp 96 well microtiter plates. […] Wells were washed with 0.1% TBST, and bound peptide detected by addition of HRP-conjugated streptavidin (Abeam, Cambridge, UK), washing and ABTS substrate incubation for 10 minutes. Absorbance at 405 nm was read by spectrophotometer. […] Plates were washed and bound peptide once again detected by addition of streptavidin-HRP and ABTS and absorbance read at 405 nm.
In general terms: In an ELISA, binding on a coated surface is turned into a signal by an enzyme label.

B1: HER3P1 (biotin-conjugated, N-terminal tri-glycine linker) (peptide)
peptide: GGGCLPTKFRSC
modifications: N-terminal biotin on the tri-glycine linker; cysteine-constrained sequence (disulfide bond between the cysteine groups as drawn in the formulas)
notes: The formulas of the description print a beta A before G-G-G; also called HER3 peptide; the peptide
As usually defined, the Kd is the concentration at which binding is half-saturated. In the case of B1, binding was put at a Kd of 270 nM. This lies in the sub-micromolar range.
